Measured values: ChEMBL document CHEMBL1144215, “N-Propylnoraporphin-11-O-yl carboxylic esters as potent dopamine D(2) and serotonin 5-HT(1A) receptor dual ligands” (Bioorg Med Chem, 2008)

Sequences of proteins named here, by UniProt entry; tags and fusion partners are left off.
UniProt P14416, whole entry: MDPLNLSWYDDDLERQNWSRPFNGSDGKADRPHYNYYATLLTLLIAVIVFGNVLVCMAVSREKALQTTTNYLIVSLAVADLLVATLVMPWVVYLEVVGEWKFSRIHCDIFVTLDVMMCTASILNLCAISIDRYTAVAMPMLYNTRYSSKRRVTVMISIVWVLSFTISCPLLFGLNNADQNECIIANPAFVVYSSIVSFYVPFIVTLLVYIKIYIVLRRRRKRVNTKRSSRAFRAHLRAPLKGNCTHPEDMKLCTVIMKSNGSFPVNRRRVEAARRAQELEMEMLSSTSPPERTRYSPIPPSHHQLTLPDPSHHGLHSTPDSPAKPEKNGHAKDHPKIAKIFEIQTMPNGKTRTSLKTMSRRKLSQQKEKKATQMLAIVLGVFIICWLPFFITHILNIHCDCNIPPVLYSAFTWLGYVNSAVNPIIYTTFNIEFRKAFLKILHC

Molecular target: D(2) dopamine receptor (Homo sapiens, UniProt P14416)
Assay: Displacement of [3H]Spiperone from human dopamine D2 receptor expressed in HEK293 cells

With `CCCN1CCc2cccc3c2[C@H]1Cc1cccc(O)c1-3` as the compound, how does the Ki read?
Its Ki is over 10 µM.
